Reference: article PMC7835950 (Frontiers in Chemistry, 2021)

Tests used:
OGDH [1] = target: T1, OGDH (Rattus norvegicus, UniProt Q5XI78); assay: OGDH reaction (OG saturation) catalyzed by the enzyme preparation from rat liver; type: biochemical; design: the tissue fractions with the complexes enriched to a degree allowing for a robust detection of the enzymatic activities, have been used; from tissue
T1 sequence (Q5XI78 41-1023): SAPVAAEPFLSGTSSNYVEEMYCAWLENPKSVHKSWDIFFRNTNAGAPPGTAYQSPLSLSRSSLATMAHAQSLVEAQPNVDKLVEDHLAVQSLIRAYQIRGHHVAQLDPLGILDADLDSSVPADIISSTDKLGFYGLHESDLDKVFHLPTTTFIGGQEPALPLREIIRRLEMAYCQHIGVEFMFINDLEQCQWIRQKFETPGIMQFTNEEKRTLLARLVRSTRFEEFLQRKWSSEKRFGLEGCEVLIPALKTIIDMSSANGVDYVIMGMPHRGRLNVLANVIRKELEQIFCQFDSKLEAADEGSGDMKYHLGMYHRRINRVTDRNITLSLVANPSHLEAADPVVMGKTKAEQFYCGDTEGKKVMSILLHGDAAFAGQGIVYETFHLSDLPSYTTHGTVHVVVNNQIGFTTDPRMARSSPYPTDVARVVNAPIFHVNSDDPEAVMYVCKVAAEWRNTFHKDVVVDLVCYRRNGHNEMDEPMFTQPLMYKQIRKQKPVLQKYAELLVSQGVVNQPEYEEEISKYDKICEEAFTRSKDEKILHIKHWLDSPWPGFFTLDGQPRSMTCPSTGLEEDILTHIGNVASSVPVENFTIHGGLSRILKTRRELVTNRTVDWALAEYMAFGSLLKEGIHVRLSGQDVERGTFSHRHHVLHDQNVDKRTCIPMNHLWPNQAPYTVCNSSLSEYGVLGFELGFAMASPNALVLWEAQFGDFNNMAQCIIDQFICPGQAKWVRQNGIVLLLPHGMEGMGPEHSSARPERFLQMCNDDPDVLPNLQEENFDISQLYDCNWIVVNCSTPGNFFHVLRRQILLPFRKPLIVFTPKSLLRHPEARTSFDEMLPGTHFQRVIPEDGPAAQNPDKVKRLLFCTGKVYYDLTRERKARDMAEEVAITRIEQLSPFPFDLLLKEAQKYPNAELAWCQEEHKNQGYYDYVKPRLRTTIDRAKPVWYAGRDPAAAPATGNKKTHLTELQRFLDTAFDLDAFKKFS
T1 sequence (Q01205 69-454 partner): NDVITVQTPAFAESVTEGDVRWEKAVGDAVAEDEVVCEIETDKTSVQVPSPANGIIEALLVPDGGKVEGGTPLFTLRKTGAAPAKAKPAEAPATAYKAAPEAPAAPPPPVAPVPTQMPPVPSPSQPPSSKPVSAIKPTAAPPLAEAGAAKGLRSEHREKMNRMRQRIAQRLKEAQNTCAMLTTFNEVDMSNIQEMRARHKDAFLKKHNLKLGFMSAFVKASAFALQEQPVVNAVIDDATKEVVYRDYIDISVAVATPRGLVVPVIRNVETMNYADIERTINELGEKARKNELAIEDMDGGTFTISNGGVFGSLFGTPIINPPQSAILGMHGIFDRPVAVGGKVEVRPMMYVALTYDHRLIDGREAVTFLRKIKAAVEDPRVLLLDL
T1 sequence (Q6P6R2 36-509 partner): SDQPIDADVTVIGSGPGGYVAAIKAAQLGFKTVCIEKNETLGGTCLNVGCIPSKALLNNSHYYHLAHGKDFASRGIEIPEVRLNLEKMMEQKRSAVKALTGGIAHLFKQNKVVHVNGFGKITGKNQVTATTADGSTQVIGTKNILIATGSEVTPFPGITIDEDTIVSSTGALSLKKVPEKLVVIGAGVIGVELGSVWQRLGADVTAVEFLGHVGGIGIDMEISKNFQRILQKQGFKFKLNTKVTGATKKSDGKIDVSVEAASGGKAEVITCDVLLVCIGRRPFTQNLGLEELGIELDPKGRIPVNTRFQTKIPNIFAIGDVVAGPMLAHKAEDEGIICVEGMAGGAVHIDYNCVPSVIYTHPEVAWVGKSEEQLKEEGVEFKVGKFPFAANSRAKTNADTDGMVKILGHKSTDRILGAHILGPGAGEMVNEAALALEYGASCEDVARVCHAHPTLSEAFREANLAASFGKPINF
Description: (§1) Reactions were started by addition of the enzyme preparations to the assay media. The amount of enzyme preparations (0.074 mg protein for the preparation from liver and 0.023 mg protein for the preparation from heart) were chosen to induce the lowest reliably measured reaction rate (ΔA340 = 0.001/min) at 0.01 mM OA without the phosphonates.
(§2) Reaction rates were calculated from linear parts of the product accumulation curves (up to 10 min, dependent on the reaction rate), excluding the initial region, where mixing the reagents and solubilization of the preparation affected the optical density.
(§3) The former equation describes one type of the active sites. […] The assumption was based on the presence of the two enzymes, OGDH and OADH, in the employed preparations.
(§4) The Km and Amax values obtained in independent experiments using the non-linear and linear regression analyses of the experimental data, were averaged and presented as Mean ± Standard Error of Mean.
(§5) The values of Ki were determined as the ratio of the corresponding Intercepts to the Slopes. In the two-site model, the Ki(1) and Ki(2) were calculated separately from the linear approximations of Km,1eff/Amax,1eff vs. [I] and Km,2eff/Amax,2eff vs. [I] dependences, respectively. […]

OGDH [2] = target: T1, OGDH; assay: OGDH reaction (OG saturation) catalyzed by the enzyme preparation from rat heart; type: biochemical; design: the tissue fractions with the complexes enriched to a degree allowing for a robust detection of the enzymatic activities, have been used; from tissue; host or cells: rat heart
Description: as §1, §2, §3, §4, §5

Amax, OG saturation (OGDH [1]): 0.044 ± 0.005 μmol/min per mg of protein
Amax, OG saturation (OGDH [2]): 0.73 ± 0.05 μmol/min per mg of protein
SMILES: O=C(O)CCC(=O)C(=O)O [OG, 2-oxoglutarate]
